One test concerns the target VHL (VBC complex) (Homo sapiens, UniProt P40337). The experiment in a line: 19F CPMG NMR transverse relaxation rate (R2) and R2 contrast (C2) of spy molecule with and without protein. The note with it: for R2 contrast – C2: supplement 8.1.
In test [1] the target is VHL (VBC complex: pVHL54-213, eloB1-104, eloC17-112) (Homo sapiens, UniProt P40337). The experiment in a line: Surface plasmon resonance (SPR) steady-state binding to immobilised biotinylated AviVBC.
The target in test [2] is VHL (VBC complex), Hyp site (Homo sapiens, UniProt P40337). The experiment in a line: 19F NMR competition experiment, displacement of spy molecule 19. The note with it: 19 at 50 μM, VHL at 1.0 μM.
[3] abbreviates: Spy molecule 100 μM, no protein.
The mark [4] stands for this setting: read-out: K D, SPR, 20 °C, steady-state 1:1 fit, footnote b values fitted because RMAX was not reached experimentally.
[5] abbreviates: read-out: KD (Biacore T200 fit), SPR steady-state fit, supplement section 7.

The text below walks through data of paper PMC6369734, “Spy vs. spy: selecting the best reporter for ^19F NMR competition experiments” (Chemical Communications (Cambridge, England), 2019).

Where two headings read alike, the source gives them in different places.

With `Cc1ncsc1-c1ccc(CNC(=O)[C@@H]2C[C@@H](O)CN2C(=O)[C@@H](NC(=O)C(F)(F)F)C(C)(C)C)cc1`, the R2 on VHL (VBC complex) (Spy molecule 100 μM + VBC 1 μM) came to 4.018 ± 0.245 s⁻¹; on VHL (VBC complex) (setting [3]) it was 3.987 ± 0.241 s⁻¹. Further, the “R2 contrast – C2” value at VHL (VBC complex) (Spy molecule 100 μM + VBC 1 μM) is given as 0.8 ± 8.6%. Further, in test [1] (SPR), the “binding kinetics / dissociation rates by SPR” value was “too high to be determined accurately”. Also, the Kd in test [1] (setting [4]) and in test [1] (setting [5]) was 0.0969 µM in each case. In addition, the “Displacement of spy molecule 19” value in test [2] is recorded as “concentration dependent”.

As to `Cc1ncsc1-c1ccc(CNC(=O)[C@@H]2C[C@@H](O)CN2C(=O)CC(F)(F)F)cc1`, the R2 was found to be 3.116 ± 0.153 s⁻¹ on VHL (VBC complex) (Spy molecule 100 μM + VBC 1 μM) and 1.609 ± 0.042 s⁻¹ at VHL (VBC complex) (setting [3]). For the same compound, the “R2 contrast – C2” value at VHL (VBC complex) (Spy molecule 100 μM + VBC 1 μM) was determined as 48.4 ± 5.6%. In addition, the Kd in test [1] (setting [4]) and in test [1] (setting [5]) was 12.4 µM throughout.

For the compound `Cc1ncsc1-c1ccc(CNC(=O)[C@@H]2C[C@@H](O)CN2C(=O)C(F)(F)F)cc1`, the R2 at VHL (VBC complex) (Spy molecule 100 μM + VBC 1 μM) was found to be 4.858 ± 0.123 s⁻¹; on VHL (VBC complex) (setting [3]), 1.167 ± 0.014 s⁻¹. Further, at VHL (VBC complex) (Spy molecule 100 μM + VBC 1 μM), the “R2 contrast – C2” value is on record as 76.0 ± 3.2%. The Kd in test [1] (setting [4]) and in test [1] (setting [5]) was 24.8 µM each time. Also, the “Displacement of spy molecule 19” value in test [2] is reported as “concentration dependent”.
